Reference: patent US20080051327A1, “Crystals of an Aurora-A Tpx2 Complex, Tpx2 Binding Site of Aurora-A, Aurora-A Ligands and Their Use” (EMBL, priority 2003, published 2008)

How the values were obtained:
human Aurora-A = molecular target: T1, human Aurora-A (Homo sapiens, UniProt O14965); assay: in vitro kinase assay, phosphorylation of histone H3 (autoradiography); type: biochemical; details: AuroraΔN (residues 122-403), FIG. 2C
T1 construct: were incubated with full length Aurora-A or AuroraΔN in kinase buffer; made in house; host or cells: bacteria (printed only for the full-length protein used as immunogen)
T1 sequence (O14965 122-403): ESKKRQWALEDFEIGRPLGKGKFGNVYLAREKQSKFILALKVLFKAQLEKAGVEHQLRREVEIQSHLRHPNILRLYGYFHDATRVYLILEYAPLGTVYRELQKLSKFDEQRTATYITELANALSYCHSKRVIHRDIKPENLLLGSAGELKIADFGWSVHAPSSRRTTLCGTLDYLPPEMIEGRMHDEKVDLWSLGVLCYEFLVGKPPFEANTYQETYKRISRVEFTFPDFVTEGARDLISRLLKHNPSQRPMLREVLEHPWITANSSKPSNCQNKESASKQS

Aurora A [1] = molecular target: T2, Aurora A (Homo sapiens, UniProt O14965); assay: as above; type: biochemical; set-up: were incubated with full length Aurora-A or AuroraΔN in kinase buffer; made in house; host or cells: bacteria (printed only for the full-length protein used as immunogen); details: full length Aurora-A, TPX2 protein at 4 μM, FIG. 1C
T2 sequence (O14965 1-403): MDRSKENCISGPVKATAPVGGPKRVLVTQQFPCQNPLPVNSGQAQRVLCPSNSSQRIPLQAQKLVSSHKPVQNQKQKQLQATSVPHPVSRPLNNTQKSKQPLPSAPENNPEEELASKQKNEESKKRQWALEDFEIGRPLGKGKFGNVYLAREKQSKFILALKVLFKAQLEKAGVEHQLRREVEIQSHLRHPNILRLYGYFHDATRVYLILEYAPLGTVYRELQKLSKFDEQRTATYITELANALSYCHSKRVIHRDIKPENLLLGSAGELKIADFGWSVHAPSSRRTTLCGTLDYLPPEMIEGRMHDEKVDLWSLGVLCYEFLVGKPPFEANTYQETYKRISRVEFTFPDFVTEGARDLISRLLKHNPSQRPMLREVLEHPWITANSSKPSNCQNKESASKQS

Aurora A [2] = molecular target: T2, Aurora A; assay: phosphatase assay, PP1 treatment of Aurora-A, Western blot; type: biochemical; details: TPX2 protein 3 μM, Aurora-A 2 μM, PP1 0.5 h at 30° C., FIG. 1E
Experimental: Active human Aurora-A (2 μM) was incubated with TPX2, TPX2(1-43) or TPX2(15-43) (3 μM) for 10 min at 4° C. Samples were diluted in phosphatase buffer (50 mM Tris-HCl pH 7, 0.1 mM EDTA, 1 mM MnCl2, 5 mM caffeine, 5 mM DTT, 0.025% Tween 20) and incubated in the absence or presence of PP1 (α isoform, NEB) for 0.5 h at 30° C. Afterwards proteins were separated by SDS-PAGE and analyzed by Western blotting with anti-Aurora-A or anti-phospho-Aurora-A (Cell Signalling, 1:10000 dilution).

Aurora A [3] = molecular target: T2, Aurora A; assay: immunoprecipitation from mitotic HeLa cell extract; type: binding; details: GST fusion proteins 1 μM, FIG. 1B
Experimental: HeLa cells (CCL2; ATCC, Manassas, Va.) were grown in 10% fetal calf serum (FCS) and 2 mM L-glutamine in modified Eagle's medium at 37° C. and 5% CO2. Cells were arrested in S phase using a double thymidine (2 mM) block as described (Stein, 1994) and released from S phase by washing away the thymidine. After 10 h, cells were trypsinized, incubated for 10 min in ice-cold lysis buffer (25 mM Tris pH 7.6, 200 mM NaCl, 1% Triton, protease inhibitors), and centrifuged for 10 min at 15,000 g. Xenopus cytostatic factor arrested extracts (CSF extracts) were prepared as described (Murray, 1991).
For coating beads with anti-GST, 6 μg of antibody were incubated with 20 μl of protein A-conjugated Dynabeads 280 (Dynal) in a total volume of 100 μl PBS-T (PBS, 0.1% Triton X-100), for at least 1 h at 4° C. The beads were washed twice with PBS-T and twice with HeLa cells lysis buffer or CSF-XB (10 mM Hepes pH 7.7, 50 mM sucrose, 100 mM KCl, 2 mM MgCl2, 0.1 mM CaCl2 and 5 mM EGTA). […] The samples were then subjected to gel electrophoresis and analyzed by Western blotting with anti-GST, anti-Xenopus TPX2, anti-Xenopus Aurora-A or anti-human Aurora-A.

activation of AuroraΔN (human Aurora-A): activated
stimulation of histone H3 phosphorylation by Aurora-A (Aurora A [1]): markedly increased
protection of Aurora-A from dephosphorylation by PP1 (Aurora A [2]): An even stronger protection effect
interaction with Aurora-A in HeLa extract (Aurora A [3]): able to interact with Aurora-A
Substance: TPX2(1-43): minimal activating domain of TPX2, amino acid residues 1-43 of human TPX2
